Screens from PubChem.
MLL AF4-AF9 inh: MLL-AF4/AF9 protein interaction inhibition; AlphaScreen, biotin-AF4 peptide binding to FLAG-AF9; inhibition, % at 10 µM; hit rate 0.47% among 350,000; AID 651704;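 active = every replicate reaching a set inhibition limit, whatever the replicate mean, cut at about 25% in these data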
RAD54 branch: inhibitors of human RAD54 branch migration; Q92698; RAD54 Holliday junction branch migration, FAM/BHQ fluorescence; inhibition, % at 10.4 µM; hit rate 0.14% among 360,000;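 active = mean normalized replicate activity at least 40 and at least half of replicates scoring 40 or more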;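 also: inhibitors cause a drop in the FAM fluorescence signal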
SIRT5 inh: inhibitors of human sirtuin-5 desuccinylase | Purified SirT5, succinyl-peptide AMC, trypsin-coupled fluorescence | inhibition, % at 15 µM | hit rate 1.1% among 330,000 | AID 652115; in the data active = inhibition above about 15%
RAD52 anneal inh: inhibitors of human RAD52 DNA annealing. P43351. recombinant RAD52 DNA annealing, FRET fluorescence. inhibition, % at 18.7 µM. hit rate 0.46% among 360,000. AID 651710;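 active = every replicate showing at least 50% inhibition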
UUG fidelity: modulators of start codon recognition fidelity in yeast; S. cerevisiae UUG-firefly luciferase reporter, luminescence/redox ratio; AID 602363; 350,000 tested, 0.13% active; activity score, % at 18.7 µM;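 active = replicate mean at a twofold rise or more, about +100% in these data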;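 also: firefly luciferase made from a UUG start codon reports start codon fidelity; reporter light over untreated wells divided by growth signal over untreated wells; some hits fall short of that in this replicate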
E-selectin induc: E-selectin induction on HUVECs. hit rate 0.37% among 260,000. activation, % at 7.58 µM. HUVEC E-selectin immunofluorescence imaging; normalized: neutral wells 0, TNF-alpha wells 100;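 active = mean E-selectin-positive cell signal at least 10% of the positive control, reached in at least 60% of replicates, without over 20% cell loss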
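System: HUVEC / Compound: single concentration / Signal: immunofluorescence imaging / Read-out: percent E-selectin-positive cells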
Large screens that a line does not name were inactive. Most compounds without a hit are left out; they make up all but 1.8% or so of the library.

CCCC(=O)Nc1ccc2c(c1)OC[C@@H](C)N(Cc1ccccc1F)C[C@H](C)[C@H](OC)CN(C)C2=O	none
CN=C(Nc1cc(C)nn1-c1ccccc1)c1ccccc1F	SIRT5 inh 16 (no result: E-selectin induc)
Cc1cc(NC(=O)c2ccccc2F)n(C(C)(C)C)n1	E-selectin induc 34 (no result: SIRT5 inh)
COc1ccc2c3c([nH]c2c1)[C@H](CO)NCC31CN(C(=O)Nc2c(C)noc2C)C1	none (no result: RAD54 branch, UUG fidelity)
CN(C)CCCn1c(=O)n(C2CCCCC2)c(=O)c2c3c(sc21)CCCCC3	MLL AF4-AF9 inh 28 (no result: E-selectin induc)
CN(C)CCn1c(=O)n(-c2ccc(F)cc2)c(=O)c2c3c(sc21)CCCCC3	none (no result: RAD54 branch, UUG fidelity)
C[C@H]1CN([C@@H](C)CO)C(=O)c2cc(NS(=O)(=O)c3ccccc3)ccc2O[C@@H]1CN(C)C(=O)Nc1cccc2ccccc12	none
O=C(CC1c2cc(F)ccc2C=C(c2ccsc2)N1c1ccc(C#CCCO)cc1)c1ccco1 (stereo not given)	SIRT5 inh 17 (no result: RAD54 branch, UUG fidelity)
C[C@H](CO)N1C[C@H](C)[C@@H](CN(C)Cc2ccc(Cl)c(Cl)c2)Oc2ccc(NS(C)(=O)=O)cc2C1=O	none
CN=c1scc(-c2cccs2)n1/N=C/c1ccc(O)c(O)c1O	MLL AF4-AF9 inh 40 (no result: RAD54 branch, UUG fidelity, E-selectin induc)
CN=c1scc(C)n1/N=C/c1ccc(O)c(O)c1O	none (no result: MLL AF4-AF9 inh, SIRT5 inh, RAD52 anneal inh, E-selectin induc)
O=C(C1CCCCC1)N1C[C@@H](O)[C@H](n2cc(-c3ccc(F)cc3)nn2)C[C@@H]1c1ccccc1	SIRT5 inh 28 (no result: RAD54 branch, UUG fidelity)
CCN(c1ccccc1)S(=O)(=O)c1nnc(NC(=O)C(C)(C)C)s1	SIRT5 inh 30
Cc1ccc(-c2ccc3c(c2)O[C@@H](CN(C)Cc2ccccn2)[C@H](C)CN([C@@H](C)CO)S3(=O)=O)cc1	SIRT5 inh 19
CC(C)C#Cc1ccc2c(c1)O[C@@H](CN(C)Cc1ccccn1)[C@H](C)CN([C@H](C)CO)S2(=O)=O	SIRT5 inh 19
Cc1ccc(-c2ccc3c(c2)O[C@@H](CN(C)Cc2ccccc2)[C@@H](C)CN([C@H](C)CO)S3(=O)=O)cc1	none
Cc1ccc(-c2ccc3c(c2)O[C@@H](CN(C)Cc2ccccc2)[C@@H](C)CN([C@@H](C)CO)S3(=O)=O)cc1	SIRT5 inh 32
C[C@H]1CN([C@@H](C)CO)S(=O)(=O)c2ccc(-c3cncnc3)cc2O[C@H]1CN(C)Cc1ccccn1	SIRT5 inh -0.3 (no result: E-selectin induc)
C[C@H](CO)N1C[C@H](C)[C@@H](CN(C)Cc2ccccn2)Oc2cc(-c3cncnc3)ccc2S1(=O)=O	none
CCCNC(=O)N1C[C@H]2[C@@H](c3ccccc31)[C@H](CO)N2Cc1cc(F)ccc1F	none
C[C@@H]1CN([C@H](C)CO)S(=O)(=O)c2ccc(C#Cc3ccccn3)cc2O[C@@H]1CN(C)Cc1cccc(F)c1	SIRT5 inh 27
O=C(NCc1ccccn1)C1CCC(=O)N(Cc2ccc(Cl)cc2)C1 (stereo not given)	SIRT5 inh 37
O=C1COc2ccc(C(=O)COC(=O)CCSc3ccc(Cl)cc3)cc2N1	SIRT5 inh 16 (no result: RAD54 branch, UUG fidelity, E-selectin induc)
Cc1ccc(S(=O)(=O)Nc2ccc(O)c3ncccc23)cc1	MLL AF4-AF9 inh 26 (no result: SIRT5 inh, E-selectin induc)
Cc1ccc(S(=O)(=O)Nc2ccc(O)c3cccnc23)cc1	none (no result: E-selectin induc)
CC(C)NC(=O)Nc1ccc2c(c1)CC(=O)N([C@H](C)CO)C[C@@H](C)[C@H](CN(C)CC1CCCCC1)O2	none
COC(=O)CCSCC(=O)Nc1nnc(C)s1	MLL AF4-AF9 inh 27 (no result: E-selectin induc)
CCOCC(=O)Nc1nnc(C)s1	none (no result: MLL AF4-AF9 inh, SIRT5 inh, RAD52 anneal inh, E-selectin induc)
C[C@H](CO)N1C[C@H](C)[C@H](CN(C)Cc2ccc(Cl)c(Cl)c2)OCCCC[C@H](C)Oc2ccc(NS(C)(=O)=O)cc2C1=O	none (no result: RAD54 branch, UUG fidelity)
Cc1cc(C)c2c(N)c3ccccc3nc2n1	RAD54 branch 100 (no result: MLL AF4-AF9 inh, SIRT5 inh, RAD52 anneal inh, E-selectin induc)
CCc1cc2c(=O)c(-c3cnn(-c4ccccc4)c3)c(C)oc2cc1OCC(=O)Nc1ccc(F)c(F)c1	none (no result: RAD54 branch, UUG fidelity, E-selectin induc)
CCc1cc2c(=O)c(-c3cnn(-c4ccccc4)c3)c(C)oc2cc1OCC(=O)Nc1cccc(C)c1	SIRT5 inh 27 (no result: RAD54 branch, UUG fidelity, E-selectin induc)
COc1ccc(N/C(=N\c2nc(C)cc(C)n2)NC(C)=O)cc1OC	none (no result: MLL AF4-AF9 inh, SIRT5 inh, RAD52 anneal inh, E-selectin induc)
COc1ccc(OC)c(N/C(=N/c2nc(C)cc(C)n2)NC(C)=O)c1	MLL AF4-AF9 inh 27 (no result: RAD54 branch, UUG fidelity)
CCOC(=O)C1=CCN(S(=O)(=O)c2ccccc2Br)C1c1ccc(Cl)c(Cl)c1 (stereo not given)	SIRT5 inh 25
